The record followed here is ChEMBL document CHEMBL5131393 (J Med Chem, 2021).

The assay addresses Human immunodeficiency virus type 1 reverse transcriptase (Human immunodeficiency virus 1) (UniProt Q72547). Briefly: Potency index, ratio of test compound IC50 to NBD-14189 IC50 for inhibition of recombinant HIV-1 reverse transcriptase incubated for 2 hrs by colorimetric assay.

Take `Cc1sc(C(CO)NC(=O)c2[nH]c(-c3ccc4c(c3)OCO4)cc2CN)nc1S` (centres undefined): the Ratio IC50 amounted to 20. The same measure for `NC[C@H](NC(=O)c1ccc(-c2ccc(C(F)(F)F)cn2)[nH]1)c1nc(CO)cs1`: 2; for `NCc1cc(-c2ccc3c(c2)OCO3)[nH]c1C(=O)NC(CO)c1nc(S)cs1` (centres undefined): 26. Consider `NC[C@@H](NC(=O)c1ccc(-c2ccc(Cl)c(F)c2)[nH]1)c1ncc(CO)s1`, for which the Ratio IC50 turned out to be 9.
